Target: SETD2(1434-1711) (Homo sapiens, UniProt Q9BYW2)
Test: SETD2 (1434-1711) assay
Assay type: biochemical
Conditions: read-out: SETD2 (1434-1711)

Sequences of proteins named here, by UniProt entry; tags and fusion partners are left off. Residues count along the entry.
UniProt Q9BYW2, 1434-1711 limits assumed: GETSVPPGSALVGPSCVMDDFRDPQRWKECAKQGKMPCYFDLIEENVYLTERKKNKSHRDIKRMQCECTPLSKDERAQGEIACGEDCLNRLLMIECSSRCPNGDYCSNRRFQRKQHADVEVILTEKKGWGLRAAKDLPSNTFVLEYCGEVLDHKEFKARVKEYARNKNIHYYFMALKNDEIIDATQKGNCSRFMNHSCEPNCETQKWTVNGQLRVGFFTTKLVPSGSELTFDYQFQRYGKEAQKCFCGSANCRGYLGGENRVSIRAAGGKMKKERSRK

Row | Structure (SMILES) | IC50 [µM]
1 | Cc1ccc(F)c2cc(C(=O)N[C@@H]3CCC[C@@H](N4CCCC5(CCNC5=O)C4)C3)[nH]c12 (some centres unmarked) | 4.9
2 | Cc1ccc(F)c2cc(C(=O)NC3CCCC(N4CCN(C(=O)C(F)F)CC4)C3)[nH]c12 (single isomer, unassigned) [879] | 0.6
3 | Cc1ccc(F)c2cc(C(=O)N[C@@H]3CCC[C@@H](N4CCNCC4)C3)[nH]c12 | 1.5
4 | Cc1ccc(F)c2cc(C(=O)NC3CCCC(N4CCN(C(=O)CO)CC4)C3)[nH]c12 (centres unmarked) | 0.7
5 | Cc1ccc(F)c2cc(C(=O)N[C@@H]3CCC[C@H](N4CC[C@@H](N(CCO)S(C)(=O)=O)C4)C3)[nH]c12 | 0.02
6 | Cc1cccc2cc(C(=O)N[C@@H]3CCN(C(=O)CCCN)C[C@H]3C)[nH]c12 | 50
7 | Cc1ccc(F)c2cc(C(=O)NC3CCCC(N4CCN(C(=O)C(F)F)CC4)C3)[nH]c12 (single isomer, unassigned) [878] | 0.02
8 | Cc1cccc2cc(C(=O)N[C@H]3C[C@H]4CC[C@@H](C3)N4C(=O)CCCN)[nH]c12 (relative stereo) | 25.2
